# Binding of CDR-mutated scFvs to a peptide of the spike HR2 region

The measurements come from Engelhart et al. 2022 (doi:10.1038/s41597-022-01779-4) through the FLAb antibody collection.

The target is the same throughout: PDVDLGDISGINAS, from the HR2 region of SARS-CoV-2 spike.

Ab-91 is the parent antibody, in scFv form: VL, then a (GGGGS)3 linker, then VH. The light chain is unchanged in all variants.
VL: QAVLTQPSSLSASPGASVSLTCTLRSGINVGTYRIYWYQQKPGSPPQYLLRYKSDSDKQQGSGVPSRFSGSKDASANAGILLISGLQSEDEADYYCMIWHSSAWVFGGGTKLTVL
VH: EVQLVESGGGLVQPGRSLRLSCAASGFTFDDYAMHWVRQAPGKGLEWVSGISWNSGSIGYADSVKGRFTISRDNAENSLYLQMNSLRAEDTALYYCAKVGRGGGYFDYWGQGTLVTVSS

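Variants in AAYL51 differ from the parent at up to three CDR positions; double and triple changes were sampled at random. AlphaSeq pools MATa yeast showing the antibodies with MATalpha yeast showing the peptide. The frequency of each diploid, read from paired DNA barcodes, reflects how well the two displayed proteins bind. Read counts were normalised to the haploid input and turned into Kd by a linear fit to BCL2-family pairs of known affinity, for each replicate. Mating was done three times.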

Variants are written as CDR1, CDR2 and CDR3 of the heavy chain (limits as in the source). Parent: GFTFDDYAMH, GISWNSGSIGYADSVK, VGRGGGYFDY. Scale: log10 of Kd in nM, estimated from mating counts; low values are strong binders. "ND" marks a missing value. The strain was present, yet no cells mated with the target were sequenced in that replicate, which points to weak or no binding. Empty control strains, which show no peptide, gave a signal in 21% of pairings with library AAYL51; the median was 4.54 and 95% of these signals were weaker than 3.26. No background was subtracted. For each scFv, signals with the empty controls are counted beside the result, with their mean in brackets.

| CDR-H1 | CDR-H2 | CDR-H3 | log10 Kd, replicates | control signals |
|---|---|---|---|---|
| GFTFDDYAMH | GISWNSGIIGIADSVV | VGRGGGYFDY | ND ND ND | 1/9 (3.43) |
| GFTFDDYAMH | GISWNSPSICYADSVK | VGRWGGYFDY | 3.83 6.38 3.06 | 3/9 (4.59) |
| GFTFDDYAMH | GISWNSGSIGYACSTK | VGRGGGYFDY | ND ND ND | 0/9 |
| GYTFDDYAMH | GISWNSGSQGYADSVK | VGRGGGYFDY | ND ND ND | 0/9 |
| GFTFDDYALH | FISWNSGSIGYALSVK | VGRGGGYFDY | ND ND ND | 0/9 |
| GFTFNDYIMH | GISWNSGSIGYSDSVK | VGRGGGYFDY | ND 4.99 4.58 | 1/9 (3.12) |
| GFTFWDYAMH | NISWNNGSIGYADSVK | VGRGGGYFDY | 4.73 ND 5.37 | 2/9 (5.26) |
| GFTFDDYAMH | GISSNSGSIGYADSVI | VGRGGGYFLY | 2.92 ND ND | 0/9 |
| GFTFDDYAMH | GISWNSGSIGYADSVK | VSIGGGYPDY | ND ND ND | 0/9 |
| GFTFDDYAMH | TISWNIGSIGYADSVK | VGRGGGYLDY | ND ND 5.01 | 3/9 (3.94) |
| WFTFDDQAMH | GIYWNSGSIGYADSVK | VGRGGGYFDY | ND ND ND | 0/9 |
| GFTFDDYAMH | GISWNSGSIGYADSVK | WGYGGGYFDY | ND 5.81 ND | 2/9 (3.34) |
| GFTFDDYFMH | GISWNSGSIAYADSVK | VGRGGGYIDY | ND 6.31 4.61 | 3/9 (5.07) |
| GFTFKDYAMH | EISWNSGSIGYADSAK | VGRGGGYFDY | ND ND ND | 1/9 (2.17) |
| GNTFDDYAMH | GISWNSGSIGYADSVK | EGRGGGYFCY | ND ND ND | 2/9 (4.00) |
| GFTFDHYAMH | GINWNSGSIGPADSVK | VGRGGGYFDY | 3.64 ND ND | 1/9 (5.32) |
| GFTFDDYNMH | GISWNSGSIGYAGSVK | VGRGGDYFDY | 4.79 ND ND | 0/9 |
| GFGFDDYAEN | GISWNSGSIGYADSVK | VGRGGGYFDY | 3.66 ND ND | 3/9 (4.96) |
| GFTFDDYAMH | GISWCSGGIGYADSVK | VGRGGGYFDY | 3.64 ND ND | 1/9 (2.76) |
| GFTRDDYAMH | GVCWNSGSIGYADSVK | VGRGGGYFDY | ND ND ND | 1/9 (4.41) |
| GFTFDDYAMH | GISKNDGSITYADSVK | VGRGGGYFDY | 5.23 5.58 ND | 2/9 (4.39) |
| GFTFDDYAMH | GISWNLGDIGYADSVE | VGRGGGYFDY | ND ND ND | 0/9 |
| GFTFHDYAMH | PIRWNSGSIGYADSVK | VGRGGGYFDY | 5.18 ND ND | 2/9 (5.33) |
| PKTFDDYAMH | GISWNSGEIGYADSVK | VGRGGGYFDY | 4.87 5.64 ND | 0/9 |
| GFTFADYAMH | WISWESGSIGYADSVK | VGRGGGYFDY | ND ND ND | 3/9 (3.82) |
| GFTFDYYAMF | GISCNSGSIGYADSVK | VGRGGGYFDY | ND ND ND | 0/9 |
| GFTFDDYAFH | VISWNSGSIGYADRVK | VGRGGGYFDY | ND ND ND | 0/9 |
| GFTFDDYAMH | GISWDSVSIGYADSVK | AGRGGGYFDY | 0.57 0.53 -0.11 | 6/9 (4.85) |
| TFTFDDYAMH | GISWNSGSIGYWDSVK | NGRGGGYFDY | 2.59 ND ND | 0/9 |
| GFTFDDYAMD | GISWNSGSLGYADSVK | LGRGGGYFDY | 4.99 ND 5.32 | 8/9 (4.71) |

For reference, 3 entries of the list once more:

CDR-H1	CDR-H2	CDR-H3	log10 Kd, replicates	control signals
WFTFDDQAMH	GIYWNSGSIGYADSVK	VGRGGGYFDY	ND ND ND	0/9
GFTFDDYAMH	GISSNSGSIGYADSVI	VGRGGGYFLY	2.92 ND ND	0/9
GFTFDDYAFH	VISWNSGSIGYADRVK	VGRGGGYFDY	ND ND ND	0/9